Measured values reported in article PMC4558368.

By UniProt entry, the sequences of proteins in these tests, tags left out. Where a name states a change or a piece, a line headed by the entry shows the natural chain unless it says otherwise.
UniProt P08637: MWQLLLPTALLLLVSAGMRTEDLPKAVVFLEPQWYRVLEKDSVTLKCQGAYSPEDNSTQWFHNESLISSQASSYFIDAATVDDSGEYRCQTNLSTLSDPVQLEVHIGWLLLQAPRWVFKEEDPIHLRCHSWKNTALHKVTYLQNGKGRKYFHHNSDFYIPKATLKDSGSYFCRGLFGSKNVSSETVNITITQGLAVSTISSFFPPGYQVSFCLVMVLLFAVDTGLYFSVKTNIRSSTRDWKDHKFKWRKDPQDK

Target: Extracellular region of FcγRIIIa (residues 19-193, V158 allotype) (UniProt P08637)
Test: SPR

For “(1)GlcNAc-Fc wt (human IgG1 Fc with a single GlcNAc residue attached at N297) (domain or fragment)”, which Kd is on record?
The Kd was 5 µM.
